Where a name gives a salt, the structure may show the parent alone.
Tested on: B16 F0 murine melanoma cells
Assay: Colony forming technique: chemotherapeutic and radiotherapeutic (^125I) effects in vitro
Format: cell-based
Settings: inhibition of growth, cold products
Protocol: The colony forming technique is involved, that is to say the growth of colonies of clones starting from tumour cells (B16 F0 murine melanoma cells) inoculated at a low concentration. This method makes it possible to visualize the cytotoxic and cytostatic properties of the compounds studied. The study was carried out in three parts:
The experiment is carried out on 6-well plates where 200 cells are inoculated in 2 ml of DMEM medium. After 20 hours, the medium is withdrawn and replaced with 2 ml of medium comprising the labelled compound at the desired concentration. This study is carried out in comparison with control wells comprising DMEM medium alone. […] The plates are incubated for 8 days and then the medium is withdrawn. The wells are rinsed with PBS and methanol is added for 3 minutes. Once attached, the cells are coloured with crystal violet with a contact time of 3 minutes. Subsequently, the colonies comprising more than 50 cells are counted using a dedicated counter. The growth of the treated colonies of cells is quantified in comparison with the controls. The activity of the product is expressed by a percentage of inhibition:
100−[(number of treated colonies)/(number of control colonies)]×100

## CCN(CC)CCNC(=O)c1cccc2cc3cccc(I)c3nc12 [compound 102, N-(2-diethylaminoethyl)-5-iodoacridine-4-carboxamide dihydrochloride]
  activity of the cold compound in comparison with the derivatives 84 and 151: 15 to 40 ×
